The results in this text go back to paper PMC11217458.

The experiment deals with human ACE2 (angiotensin-converting enzyme 2), full length, N-terminal FLAG tag (human) (UniProt Q9BYF1). As to the kind of experiment: cryo-EM structure; ACE2-SIT1 complex co-expressed and co-purified in GDN (20 mM HEPES pH 7.5, 150 mM NaCl, 0.02% GDN), incubated with 10 mM L-pipecolate or 10 mM glycine; single-particle cryo-EM, C2 symmetry for the 2:2 complexes.

With “human ACE2 (angiotensin-converting enzyme 2), full length, N-terminal FLAG tag (from UniProt Q9BYF1 18-805) (natural protein; N-linked glycans at Asn90, Asn103, Asn322, Asn432, Asn546, Asn690; O-glycosylation at Thr730; N-linked glycans at Asn90, Asn103, Asn322, Asn432, Asn546, Asn690; O-glycosylation at Thr730; other documents disagree on this pair)”, the stoichiometry N came to 2.
